Assay results from published antibiotic growth screens (doi:10.1038/s41589-023-01349-8).
The list shows a part of the results.

tested on: A. baumannii ATCC 17978; test: relative growth (fraction of control); higher = less inhibition; details: 50 µM

Structure (SMILES) | relative growth
CCCCCCC#C[Si](O[C@H](c1ccccc1)c1cn(Cc2cccc(Cl)c2)nn1)(C(C)C)C(C)C | 1.05
CC(=O)OCC(=O)NCCCOc1cccc(CN2CCCCC2)c1.Cl | 0.979
CCOC(=O)c1c(C)cc(O)c(C=O)c1O | 0.832
CCC[C@@H]1C[C@@H](C(=O)N[C@@H](C2O[C@H](SC)[C@H](O)[C@@H](O)[C@H]2O)[C@H](C)Cl)N(C)C1.Cl (some centres not stated) | 0.489
NCC[C@H]1CC[C@H](NC(=O)c2ccccc2F)[C@H](CO)O1 | 1.21
CC(C)NC(=O)N[C@H]1C=C[C@H](CC(=O)O)O[C@H]1CO | 1.06
C[C@@H]1CN([C@H](C)CO)S(=O)(=O)c2ccc(-c3ccc(F)cc3)cc2O[C@H]1CN(C)C(=O)C1CCOCC1 | 1.16
Nn1c(=S)[nH]c2cc(C(=O)O)ccc2c1=O | 0.91
CC[C@H](C)C(=O)O[C@H]1C[C@@H](C)C=C2C=C[C@H](C)[C@H](CC[C@@H]3C[C@@H](O)CC(=O)O3)[C@H]21 | 0.78
COc1cccc(NC(=O)N2C[C@H](O)COC[C@H]3O[C@H](CC(=O)NCc4ccccc4F)CC[C@@H]32)c1 | 1.18
NCCS(=O)(=O)N1CCN(c2ccc(F)cc2)CC1 | 0.829
COc1ccc(S(=O)(=O)N2C[C@@H](O)COC[C@H]3O[C@H](CC(=O)NCCN4CCCCC4)CC[C@@H]32)cc1 | 0.921
COCC(=O)Nc1ccccc1C(=O)O | 1
CO[C@@H]1CN(C)C(=O)c2ccc(NC(=O)C3CC3)cc2OC[C@H](C)N(C(=O)C2CCOCC2)C[C@H]1C | 1.16
C[C@H]1COC(=O)[C@@H](CC(=O)OC(C)(C)C)CC=CC[C@@H](CC(=O)N[C@@H](CO)Cc2ccccc2)C(=O)N1 | 0.967
CO[C@H](CN(C)S(=O)(=O)c1cccc(Cl)c1)[C@@H](C)CN([C@@H](C)CO)S(=O)(=O)c1ccc(Cl)cc1 | 0.909
C[C@@H]1CN([C@H](C)CO)S(=O)(=O)c2ccc(C#CC3CCCC3)cc2O[C@H]1CN(C)Cc1cncnc1 | 0.633
Cc1cc(C)nc(NS(=O)(=O)c2ccc(NC(=O)c3cccn(OCc4ccc(F)cc4)c3=O)cc2)n1 | 0.998
CC1(C)CC[C@]2(C(=O)O)CC[C@]3(C)C(=CCC4[C@@]5(C)CC[C@H](O)[C@@](C)(CO)C5CC[C@]43C)C2C1 (some centres not stated) | 0.709
NC1CCN(C(=O)c2c[nH]c3ccccc23)CC1 | 0.887
C[C@H](CO)N1C[C@H](C)[C@H](CN(C)C(=O)Cc2ccccn2)Oc2cc(C#C[C@@H](C)O)ccc2S1(=O)=O | 1.04
NC(=O)N1C(=O)[C@H]2[C@H](C1=O)[C@H]1C=C(CCCO)[C@@H]2[C@@H](C2CC2)N1Cc1cc2c(cc1Br)OCO2 | 1.09
